From publication PMC12736535, “Generation and Characterization of Novel Contilisant+Tubastatin a Multitarget Small Molecules Against Glioblastoma” (Pharmaceutics, 2025)

Chains of the proteins cited; added tags and fusions are not shown.
UniProt P27338, whole entry: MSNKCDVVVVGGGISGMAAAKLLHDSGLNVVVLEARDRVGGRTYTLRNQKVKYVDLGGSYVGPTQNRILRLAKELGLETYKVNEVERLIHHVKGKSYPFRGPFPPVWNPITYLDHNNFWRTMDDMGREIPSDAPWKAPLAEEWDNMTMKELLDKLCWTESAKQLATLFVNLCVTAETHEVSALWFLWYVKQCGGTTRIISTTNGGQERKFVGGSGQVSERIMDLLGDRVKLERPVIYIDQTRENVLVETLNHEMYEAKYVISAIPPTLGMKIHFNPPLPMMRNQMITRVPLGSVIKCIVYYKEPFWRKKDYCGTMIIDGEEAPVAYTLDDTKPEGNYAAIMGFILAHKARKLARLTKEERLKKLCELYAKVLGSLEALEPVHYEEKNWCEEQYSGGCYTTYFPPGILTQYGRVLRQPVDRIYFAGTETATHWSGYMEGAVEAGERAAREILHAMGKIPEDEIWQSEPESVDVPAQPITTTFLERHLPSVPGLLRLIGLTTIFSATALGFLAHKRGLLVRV

Molecular target: recombinant hMAO-B (Homo sapiens, UniProt P27338)
Experiment: MAO-B inhibition assay

C#CCN1CCN(CCCOc2ccc3c(ccn3S(=O)(=O)c3ccc(C(=O)NNCCC)cc3)c2)CC1 [FRB56]
IC50: 0.15 µM
